Drawing on patent US11672834B2, “Probiotic and prebiotic compositions, and methods of use thereof for modulation of the microbiome” (Evelo Biosciences, Inc., priority 2014, dated 2023), this text covers serum endotoxin levels for one molecule.

For the assay, the system named is C57BL/6 mice. The settings on record: mouse, in vivo.

SMILES strings stand for the structures.

For `CCN1CCN(c2cc3c(cc2F)c(=O)c(C(=O)O)cn3C2CC2)CC1` [enro, enrofloxacin, reference compound], the serum endotoxin levels result is listed as “increase in serum endotoxin levels”.
